We go through one substance from patent US8614184B2, “HCG formulations for achieving weight loss” (priority 2010, dated 2013).

The conditions of test [1]: HCG with calorie restriction, in six weeks, if protocol strictly followed; cited from earlier work.
Test [2] can be described thus: Applicant's HCG / enhanced HCG low calorie diet protocol, experience and observation in treated participants. The class given is in vivo, human. The text has this: A human body's deep fat reserve is broken down after prolonged severe calorie restriction, or after using HCG with calorie restriction. Protocol participants cannot be insulin dependent diabetics nor have active cancer. Protocol participants must have a recent complete blood count test (CBC) and metabolic profile. Protocol participants have to keep a one week log of everything they eat prior to inclusion within the HCG protocol. […] Protocol participants that meet these requirements are candidates for the initial counseling session.
The counseling session selects protocol participants through a psychological screen to determine if there are any issues which would prevent a protocol participant from following the diet. Issues such as severe carbohydrate craving, inability to cook, or not having anyone to cook for the protocol participant would eliminate a potential participant from participating in the diet. Protocol participants are informed that in order to lose weight with this program, they must adapt their lifestyle as described herein to maintain the weight loss. […]
After three or six weeks, depending on the amount of weight loss desired and participant motivation, protocol participants enter phase two of the diet. […] The rate and amount of calorie increase is determined by the physician during an office visit near the end of phase one. […]

The conditions of test [3]: cited from earlier work.

Take human chorionic gonadotropin [HCG]: the weight loss result in test [1] is reported as “up to 35 lbs”. In test [2] (low calorie diet with HCG regimen), the “percent of people who get hungry while on the protocol” value is “approximately 20%”. Besides, the “patients who experienced little or no hunger” value in test [2] (over 150 people treated with HCG protocol, over eighty with enhanced formula) was “about 80%”. Also, the “group reporting little or no hunger” value in test [3] (Simeons protocol, double-blind) is recorded as “about 80%”. In addition, the “people who still experience hunger” value in test [3] (protocol of Dr. Simeons, as illustrated by the 1973 Asher and Harper study) is “approximately 20%”. Further, the mean weight lost result in test [3] (subjects completing at least 30 injections, Simeons protocol) was “about 20 lbs”.
